Experimental data published in ChEMBL document CHEMBL1287705, “Design and synthesis of threading intercalators to target DNA” (Bioorg Med Chem Lett, 2010).

System: Calf thymus DNA
Assay: Displacement of ethidium bromide from calf thymus DNA by fluorometric assay
Assay type: nucleic-acid assay
Conditions: Bos taurus

logKA	Compound
6.43	CN(C)CCNC(=O)c1ccc2c(NCCCCCCNC(=O)c3ccc4ccccc4n3)c3ccccc3nc2c1
6.68	CN(C)CCNC(=O)c1cccc2c(NCCCCCCNC(=O)c3ccc4ccccc4n3)c3ccccc3nc12
6.22	CN(C)CCNC(=O)c1ccc2c(NCCCCCCNC(=O)c3cccc4ccccc34)c3ccccc3nc2c1
6.72	CN(C)CCNC(=O)c1cccc2c(NCCCCCCNC(=O)c3cccc4ccccc34)c3ccccc3nc12
